Values of other authors as cited in paper PMC4843776 (Biochemistry, 2016).
Read-outs that look alike come from different tables or passages of the source.

Amino acid sequences for entries named in this document (tags omitted). Residues count along the entry.
UniProt P49023, 141-160: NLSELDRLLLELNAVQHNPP
UniProt Q14289, 868-1009: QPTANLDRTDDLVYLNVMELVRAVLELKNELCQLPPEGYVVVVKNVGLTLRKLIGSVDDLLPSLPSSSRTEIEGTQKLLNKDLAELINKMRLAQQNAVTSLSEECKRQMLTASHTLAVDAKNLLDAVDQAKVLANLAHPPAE
UniProt Q14289, 871-1005: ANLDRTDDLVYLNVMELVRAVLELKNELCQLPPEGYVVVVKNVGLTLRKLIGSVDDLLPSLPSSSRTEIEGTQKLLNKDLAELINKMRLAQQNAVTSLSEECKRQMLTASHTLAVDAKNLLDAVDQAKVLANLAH

What was measured:
Details in all cases: cited from earlier work
[1] = molecular target: Paxillin LD2 peptide LD2 (Homo sapiens) (UniProt P49023)
[2] = molecular target: paxillin LD2 LD2 motif peptide (Homo sapiens) (UniProt P49023)
[3] = molecular target: paxillin LD2 LD2 motif peptide (Homo sapiens) (UniProt P49023); remark: listed apart in the source
[4] = molecular target: Paxillin LD2 peptide LD2 (Homo sapiens) (UniProt P49023); remark: listed apart in the source

In the case of “Pyk2 FAT H2/H3 site (from UniProt Q14289)”, the Kd [1] is listed as 6.9 µM.
In the case of “Pyk2 FAT (871-1005), H2/H3 site (from UniProt Q14289)”, the Kd [2] is given as 6.9 µM.
For “Pyk2 FAT (871-1005), H1/H4 site (from UniProt Q14289)”, the Kd [3] is given as 35.2 µM.
For “Pyk2 FAT H1/H4 site (from UniProt Q14289)”, the Kd [4] is listed as 35.2 µM.
